One series has as its system humans. The settings on record: in vivo; cited from earlier work.
The test system of the next series is C57B/6 control mice. Description: Immunogenicity in C57B/6 control mice, antibody titers by ELISA. The conditions noted are these: six (FVIII), 5 (GAA), three (IFN-β), three (AAV9) C57B/6 mice. The format is in vivo, mouse. The procedure:
(§1) Three healthy human donors were used to generate three engrafted mice designated HD1, HD2 and HD3. On Day 29 and Day 36, HD1, HD2 and HD3 were administered FVIII. The same amounts of antigen were administered to three C57B/6 control mice on the same date. Two weeks later (on Day 43), blood from each mouse was collected. Titers of mouse anti-FVIII antibodies, human anti-FVIII antibodies, mouse anti-GAA antibodies and human anti-GAA antibodies were measured using ELISA (FIGS. 8A-8B).
(§2) Three healthy human donors were used to generate three engrafted mice designated HD1, HD2 and HD3. On Day 29 and Day 36, HD1, HD2 and HD3 were administered GAA. The same amounts of antigen were administered to three C57B/6 control mice on the same date. Two weeks later (on Day 43), blood from each mouse was collected. Titers of mouse anti-GAA antibodies, human anti-GAA antibodies, mouse anti-FVIII antibodies and human anti-FVIII antibodies were measured using ELISA (FIGS. 8C-8D).
(§3) Healthy human donors were used to generate eight engrafted mice. On Day 29 and Day 36, the engrafted mice were administered IFN-β. […] Titers of mouse anti-IFN-β antibodies and human anti-IFN-β antibodies were measured using ELISA.
(§4) Healthy human donors were used to generate 11 engrafted mice. […] Titers of mouse anti-AAV9 antibodies and human anti-AAV9 antibodies were measured using ELISA.
A general note: ELISA stands for enzyme-linked immunosorbent assay.

A further series has as its system engrafted mice. The series can be described thus: Immunogenicity in engrafted mice (NRGS mice with human immune system), antibody titers by ELISA. The settings on record: antigen Day 29 and Day 36, blood Day 43. Type of series: in vivo, mouse. The procedure: as §1, §2, §3, §4

The text below walks through data of patent publication US20260144239A1, “Immune Cell-Engrafted Non-Human Animals and Non-Human Animal Models” (LAPIX Therapeutics, Inc., priority 2022, published 2026).

For the substance “IFN-β: biologic antigen administered to engrafted and C57B/6 mice”, the “clinically reported immunogenicity rate in humans” value in the series on humans is reported as 28-47%. Also, the “percent of C57B/6 mice that developed mouse antibodies to the administered antigen” value in the series with C57B/6 control mice is given as 100%. For the same substance, the “percent of engrafted mice that developed human antibodies to the administered antigen” value with engrafted mice (12 (FVIII), 14 (GAA), eight (IFN-β), 11 (AAV9) engrafted mice) is recorded as 25%. The “engrafted mice that developed mouse antibodies to the administered antigen” value with engrafted mice is on record as “None”.
